Test system: deposited Aβ
Assay: Ex vivo target engagement, immunohistochemistry on PDAPP brain sections
Set-up: species or system mouse
Conditions: brain sections of aged PDAPP mice (25-month old); antibody 20 μg/mL
Source text: Secondary HRP reagents specific for human IgG are employed and the deposited plaques are visualized with DAB-Plus (DAKO). Biotinylated murine 3D6 antibody followed by Step-HRP secondary is used as a positive control.

B1: Antibody I: anti-N3pGlu Abeta antibody with light chain SEQ ID NO: 12 and heavy chain SEQ ID NO: 11 (antibody)
heavy: QVQLVQSGAEVKKPGSSVKVSCKASGYTFTDYYINWVRQAPGQGLEWMGWINPGSGNTKYNEKFKGRVTITADESTSTAYMELSSLRSEDTAVYYCTREGETVYWGQGTLVTVSSASTKGPSVFPLAPSSKSTSGGTAALGCLVKDYFPEPVTVSWNSGALTSGVHTFPAVLQSSGLYSLSSVVTVPSSSLGTQTYICNVNHKPSNTKVDKKV[human IgG1 Fc not shown]
light: DVVMTQSPLSLPVTLGQPASISCKSSQSLLYSRGKTYLNWFQQRPGQSPRRLIYDVSKLDSGVPDRFSGSGSGTDFTLKISRVEAEDVGVYYCVQGTHYPFTFGQGTKLEIKRTVAAPSVFIFPPSDEQLKSGTASVVCLLNNFYPREAKVQWKVDNALQSGNSQESVTEQDSKDSTYSLSSTLTLSKADYEKHKVYACEVTHQGLSSPVTKSFNRGEC
- labeling of deposited Aβ in PDAPP hippocampus: labeled a subset of deposits

B2: Antibody II: anti-N3pGlu Abeta antibody with light chain SEQ ID NO: 13 and heavy chain SEQ ID NO: 11 (antibody)
heavy: B1 heavy
light: DIQMTQSPSTLSASVGDRVTITCKSSQSLLYSRGKTYLNWLQQKPGKAPKLLIYAVSKLDSGVPSRFSGSGSGTEFTLTISSLQPDDFATYYCVQGTHYPFTFGQGTKLEIKRTVAAPSVFIFPPSDEQLKSGTASVVCLLNNFYPREAKVQWKVDNALQSGNSQESVTEQDSKDSTYSLSSTLTLSKADYEKHKVYACEVTHQGLSSPVTKSFNRGEC
- labeling of deposited Aβ in PDAPP hippocampus: labeled a subset of deposits
